# Measurements from US7196119B2 (dated 2007).
# Amino acid sequences for entries named in this document (tags omitted).
# UniProt P03372, whole entry: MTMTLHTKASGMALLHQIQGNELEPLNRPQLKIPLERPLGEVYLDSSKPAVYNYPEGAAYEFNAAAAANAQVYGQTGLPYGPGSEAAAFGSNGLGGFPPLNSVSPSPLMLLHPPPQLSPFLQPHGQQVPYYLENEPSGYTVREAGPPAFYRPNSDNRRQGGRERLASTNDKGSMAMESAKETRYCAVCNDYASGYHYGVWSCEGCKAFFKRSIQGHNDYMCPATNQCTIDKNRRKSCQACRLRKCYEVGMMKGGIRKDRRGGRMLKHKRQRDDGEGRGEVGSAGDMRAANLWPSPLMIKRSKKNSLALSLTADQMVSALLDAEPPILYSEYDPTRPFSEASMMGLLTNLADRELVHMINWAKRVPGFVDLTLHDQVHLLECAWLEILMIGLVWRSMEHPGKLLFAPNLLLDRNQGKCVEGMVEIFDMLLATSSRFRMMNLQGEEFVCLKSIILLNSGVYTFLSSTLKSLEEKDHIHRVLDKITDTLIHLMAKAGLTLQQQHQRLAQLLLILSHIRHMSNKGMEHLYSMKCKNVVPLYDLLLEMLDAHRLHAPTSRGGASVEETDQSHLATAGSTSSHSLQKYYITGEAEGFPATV
# Target: full length (ER)α (Homo sapiens, UniProt P03372)
# Details: percentage of the potency of 17β-estradiol (IC50 estradiol / IC50 ligand x 100)
structure (smiles),measurement,value
CC/C(=C(\c1ccccc1)c1ccc(/C=C/C(=O)O)cc1)c1ccccc1 [GW-5638],Relative binding affinity (ER)α,5%
